{
  "source": "patent US20080071116A1",
  "about": "“Modulators of Lysophosphatidic Acid (Lpa) Signaling and the Use Thereof” (THE BOARD OF REGENTS OF THE UNIVERSITY OF TEXAS SYSTEM, priority 2004, published 2008)",
  "key": {"ERK1/2": {"tested_on": "ERK1/2", "assay": "ERK1/2 (p42/p44-MAPK) phosphorylation immunoblot in prostate cancer cells"}, "PC-3 cells [1]": {"tested_on": "PC-3 cells", "assay": "calcium mobilization assay in androgen insensitive prostate cancer PC-3 cells", "details": "read-out: EC50 of calcium mobilization"}, "p38-MAPK": {"tested_on": "p38-MAPK", "assay": "p38-MAPK activation, phosphospecific antibodies", "details": "PC-3 and DU145 cells"}, "[2]": {"tested_on": "vasodilator-stimulated protein (VASP)", "assay": "VASP phosphorylation in PC-3 cells"}, "AKT": {"tested_on": "AKT", "assay": "AKT phosphorylation immunoblot in prostate cancer cells", "format": "cell-based, human", "details": "PC-3 and DU145 cells"}, "PKA": {"tested_on": "PKA", "assay": "PKA activation in PC-3 cells", "format": "cell-based, human"}, "LNCaP cells": {"tested_on": "LNCaP cells", "assay": "calcium mobilization in androgen sensitive prostate cancer LNCaP cells"}, "HT29 cells": {"tested_on": "HT29 cells", "assay": "calcium mobilization assay in colon cancer HT29 cells"}, "PC-3 cells [3]": {"tested_on": "PC-3 cells", "assay": "lamellipodia formation in PC-3 cells", "format": "cell-based, human", "details": "PC-3, FIG. 41"}},
  "note": "pEC50: −log10 of the molar value.",
  "data": [
    {"compound": "CCCCCCCC/C=C\\CCCCCCCC(=O)OC[C@@H](O)COP(=O)(O)O", "values": [
      {"measurement": "phosphorylation of p42 and p44 MAP kinase", "setting": "ERK1/2; LNCaP cells, FIG. 52", "value": "no phosphorylation of p42 and p44 MAP kinase"},
      {"measurement": "activation of p42/p44-MAPK", "setting": "ERK1/2; PC-3 and DU145 cells", "value": "activates"},
      {"measurement": "pEC50", "setting": "PC-3 cells [1]", "value": 8.30},
      {"measurement": "activation of p38-MAPK", "setting": "p38-MAPK", "value": "activates"},
      {"measurement": "induction of VASP phosphorylation at Ser157 PKA site", "setting": "[2]", "value": "induced phosphorylation"},
      {"measurement": "activation of AKT", "setting": "AKT", "value": "activates"},
      {"measurement": "activation of PKA", "setting": "PKA", "value": "efficiently activate PKA"},
      {"measurement": "calcium mobilization", "setting": "LNCaP cells", "value": "no calcium mobilization"},
      {"measurement": "stimulation of calcium mobilization", "setting": "HT29 cells; FIG. 3", "value": "stimulates calcium mobilization"},
      {"measurement": "pEC50", "setting": "HT29 cells; read-out: EC50 of calcium mobilization, 95% confidence about 8.2 to about 59.2 nM", "value": 7.66},
      {"measurement": "induction of lamellipodia formation", "setting": "PC-3 cells [3]", "value": "induces LPA2 receptor mediated lamellipodia formation"}
    ]}
  ]
}
